Target: human FSH receptor (human) (UniProt P23945)
Test: cell-based or functional assay

EC50 of GloSensor luminescence (cAMP), HEK 293 hFSHR cells, oFSH alone [nM]	EC50 of GloSensor luminescence (cAMP), HEK 293 hFSHR cells, oFSH complexed with the CF12 antibody [pM]	EC50 of GloSensor luminescence (cAMP), HEK 293 hFSHR cells, pFSH alone [M]	EC50 of GloSensor luminescence (cAMP), HEK 293 hFSHR cells, pFSH complexed with the CF12 antibody [M]	Substance
2.29	198	–	–	ovine FSH (from UniProt P01218 25-120; P01227 20-129) (ligand)
–	–	1.92e-09	3.69e-10	porcine FSH (from UniProt P01219 25-120; P01228 21-129) (ligand)
